Compound activity as filed in PubChem BioAssay.
Most compounds without a hit are left out; they make up all but 1.5% or so of the library.
RAD54 branch: blocks human RAD54 Holliday junction branch migration; inhibition, % at 10.4 µM; hit rate 0.14% among 360,000; Q92698; FAM/BHQ fluorescence;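 active = mean normalized replicate activity at least 40 and at least half of replicates scoring 40 or more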;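 note: 0% = median of neutral control wells and 100% = median of positive control wells; inhibitors cause a drop in the FAM fluorescence signal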
GSIS activator: primary screen for activators of insulin secretion dependent on glucose, INS-1E cells, GLuc reporter luminescence | INS-1E GLuc reporter insulin secretion, 2-3 h | activation, % at 16.6 µM | hit rate 0.61% among 370,000;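 active = lowest replicate activation of at least 40%, so every replicate reaches that level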;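 note: 0% = median of neutral control wells and 100% = median of IBMX positive control wells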
RAD52 inh: blocks human RAD52 DNA annealing | hit rate 0.46% among 360,000 | inhibition, % at 18.7 µM | P43351 | recombinant RAD52 DNA annealing, FRET fluorescence;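 active = every replicate showing at least 50% inhibition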
UUG fidelity: modulators of yeast start codon fidelity, primary screen, whole organism, S. cerevisiae, single point, plate reader | activity score, % at 18.7 µM | 350,000 tested, 0.13% active | S. cerevisiae UUG-firefly luciferase reporter, luminescence/redox ratio;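 active means replicate mean at a twofold rise or more, about +100% in these data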;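 further: firefly luciferase made from a UUG start codon reports start codon fidelity; reporter light over untreated wells divided by growth signal over untreated wells; some hits fall short of that in this replicate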
PglD inh: inhibitors of Campylobacter jejuni PglD acetyltransferase | purified PglD enzyme, DTNB colorimetric CoA detection | inhibition, % at 12.5 µM | hit rate 0.098% among 360,000 | AID 602405; in the data active = inhibition above about 16%, passing the limit was not always enough
CASP6 VEID inh: caspase-6 (human) enzyme inhibition. hit rate 0.53% among 350,000. purified caspase-6, Z-VEID-R110 cleavage fluorescence. AID 686996. inhibition, % at 12.5 µM;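 active = mean inhibition across replicates at least about 35%, with every replicate also reaching that limit, limit read from the data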;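 note: 0% = median of neutral control wells and 100% = no fluorescence left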
An asterisk follows results filed as active; . = no result given.

SMILES | RAD54 branch | GSIS activator | RAD52 inh | UUG fidelity | PglD inh | CASP6 VEID inh
COc1ccc2cc(C(c3nnnn3C3CCCC3)N3CCc4ccccc4C3)c(=O)[nH]c2c1 (configuration not stated) | -5.7 | 7.9 | -39.6 | 5.7 | -0.1 | 46.7*
CCC(C)(C)n1nnnc1C(c1cc2ccc(OC)cc2[nH]c1=O)N1CCc2ccccc2C1 (configuration not stated) | -12.1 | -22.6 | . | 6.3 | -2.2 | .
CCN1CCN(C2=C(NS(=O)(=O)c3ccc(C)cc3)C(=O)c3ccccc3C2=O)CC1 | -5.3 | -5.5 | -24.0 | 9.2 | -3.4 | 62.2*
O=C1C(NS(=O)(=O)c2ccc(Br)cc2)=C(N2CCCCC2)C(=O)c2ccccc21 | -1.8 | 26.0 | -5.2 | -21.5 | 1.5 | 1.6
CC(=O)Nc1ccc(S(=O)(=O)NC2=C(N3CCN(Cc4ccccc4)CC3)C(=O)c3ccccc3C2=O)cc1 | -7.3 | -4.7 | 1.8 | 1.2 | 5.2 | 29.6
CC(=O)Nc1ccc(S(=O)(=O)NC2=C(N3CCN(C)CC3)C(=O)c3ccccc3C2=O)cc1 | 8.0 | -12.0 | -18.7 | 7.4 | -6.9 | 44.0*
CCN1CCN(C2=C(NS(=O)(=O)c3ccc(NC(C)=O)cc3)C(=O)c3ccccc3C2=O)CC1 | -3.3 | 3.1 | -16.3 | 9.1 | -4.3 | 47.7*
Clc1cccc(Cl)c1Cn1nnc(N2CCCC2)n1 | -4.0 | . | -9.6 | -10.2 | 4.7 | 1.3
C[C@@H]1CN([C@@H](C)CO)C(=O)c2cccc(NC(=O)c3ccncc3)c2O[C@@H]1CN(C)Cc1ccccc1 | 1.8 | 15.9 | -9.6 | -12.8 | 0.8 | .
CCOc1ccc(CCNC(=O)COC(=O)c2sccc2C)cc1OCC | . | 19.2 | -4.2 | . | . | -0.7

Grouped by structure: the entries above with a halogen (2)
SMILES | RAD54 branch | GSIS activator | RAD52 inh | UUG fidelity | PglD inh | CASP6 VEID inh
O=C1C(NS(=O)(=O)c2ccc(Br)cc2)=C(N2CCCCC2)C(=O)c2ccccc21 | -1.8 | 26.0 | -5.2 | -21.5 | 1.5 | 1.6
Clc1cccc(Cl)c1Cn1nnc(N2CCCC2)n1 | -4.0 | . | -9.6 | -10.2 | 4.7 | 1.3

Carrying on:
SMILES | RAD54 branch | GSIS activator | RAD52 inh | UUG fidelity | PglD inh | CASP6 VEID inh
O=C1/C(=C/c2cccc(F)c2)CSc2sccc21 | -1.0 | 42.6* | . | -5.5 | -0.9 | .
O=C1/C(=C/c2cccc(Cl)c2)CSc2sccc21 | . | 19.9 | -7.8 | . | . | -2.8
CNc1nc(N)c(C(=O)C(C)(C)C)s1 | . | 47.0* | -13.9 | . | . | -1.7
Cc1ccc(NC(=O)CSc2nnc(-c3cccnc3)s2)cc1 | -28.7 | 42.3* | . | -10.1 | -4.1 | .
O=C(CSc1nnc(-c2cccnc2)s1)Nc1ccnc2ccccc12 | . | -30.0 | . | . | . | .
Cc1nnc(NC(=O)CSCc2ccccc2)s1 | 6.8 | . | 14.4 | -22.2 | -9.9 | -3.9
Cc1ccc(NC(=O)CSCC(=O)Nc2nnc(C)s2)cc1 | 3.6 | 47.3* | -15.0 | -1.0 | 2.1 | -1.5
COc1ccc2nc3ccccc3nc2c1N | 1.9 | 0.7 | 0.6 | -18.4 | 7.1 | 4.7
c1coc(-c2nc(-c3ccco3)c(-c3ccco3)nc2-c2ccco2)c1 | 4.1 | -2.7 | . | -6.8 | -2.6 | .
COc1ccc2nc(-c3ccco3)c(-c3ccco3)nc2c1 | 1.1 | -57.1 | -63.0 | -19.4 | 2.9 | 47.1*

Given with each value named: entries from further up
> O=C1C(NS(=O)(=O)c2ccc(Br)cc2)=C(N2CCCCC2)C(=O)c2ccccc21
- RAD54 branch = -1.8
- GSIS activator = 26.0
- RAD52 inh = -5.2
- UUG fidelity = -21.5
- PglD inh = 1.5
- CASP6 VEID inh = 1.6

> CC(=O)Nc1ccc(S(=O)(=O)NC2=C(N3CCN(Cc4ccccc4)CC3)C(=O)c3ccccc3C2=O)cc1
- RAD54 branch = -7.3
- GSIS activator = -4.7
- RAD52 inh = 1.8
- UUG fidelity = 1.2
- PglD inh = 5.2
- CASP6 VEID inh = 29.6

Other compounds
SMILES | RAD54 branch | GSIS activator | RAD52 inh | UUG fidelity | PglD inh | CASP6 VEID inh
COc1ccc2nc3cccc(OC)c3nc2c1 | 6.9 | 3.5 | -12.3 | -15.5 | -14.2 | 49.9*
CN(C)CC#Cc1ccc([C@@H]2[C@@H](CO)N3CCCCN(C(=O)Nc4ccccc4F)C[C@H]23)cc1 | -13.2 | -4.1 | 53.7* | 5.1 | 3.8 | 3.0
CN(C)CC#Cc1ccc([C@@H]2[C@H](CO)N3CCCCN(C(=O)Nc4cc(F)ccc4F)C[C@@H]23)cc1 | 1.4 | 2.4 | 51.0* | 13.3 | 0.8 | -1.1
CN(C)CC#Cc1ccc([C@@H]2[C@@H](CO)N3CCCCN(C(=O)Nc4cc(F)ccc4F)C[C@H]23)cc1 | 12.4 | 23.4 | 21.7 | -7.7 | 1.2 | -1.2
CCOC(=O)c1c(C)oc2c1cc(NS(=O)(=O)c1ccc(C(=O)O)cc1)c1ccccc12 | -11.5 | 15.2 | -26.0 | -1.2 | 3.3 | 61.7*
Cc1cccc2nc(=S)n(C(=O)c3ccco3)n12 | 8.8 | 24.9 | . | -7.0 | -1.2 | .
Cc1c(-c2cccc(Cl)c2)nc2ccccc2c1C(=O)NC1CC1 | -5.9 | 99.2* | -26.4 | -9.6 | 3.9 | 0.4
Cc1c(-c2ccccc2)nc2ccccc2c1C(=O)O | 5.6 | -9.0 | -13.6 | -16.4 | -3.4 | 3.4
CN1C(=O)NC(c2ccc(O)cc2)C2=C1CN(c1ccccc1)C2=O (configuration not stated) | 2.6 | 42.7* | -8.3 | -18.3 | -0.2 | -2.5
CN1C(=O)NC(c2ccc(O)cc2)C2=C1CN(c1ccc(O)cc1)C2=O (configuration not stated) | . | -2.0 | -1.0 | . | . | 4.0
CCCc1cc(N2CCCC(C(=O)NCc3ccc4c(c3)OCO4)C2)n2ncnc2n1 (configuration not stated) | -9.1 | 54.4* | -20.8 | -20.4 | -0.9 | 0.8
